26 molecules from PubChem BioAssay AID720702 (The Scripps Research Institute Molecular Screening Center, 2013) can be followed below.

Chains of the proteins cited; added tags and fusions are not shown.
UniProt O95551, whole entry: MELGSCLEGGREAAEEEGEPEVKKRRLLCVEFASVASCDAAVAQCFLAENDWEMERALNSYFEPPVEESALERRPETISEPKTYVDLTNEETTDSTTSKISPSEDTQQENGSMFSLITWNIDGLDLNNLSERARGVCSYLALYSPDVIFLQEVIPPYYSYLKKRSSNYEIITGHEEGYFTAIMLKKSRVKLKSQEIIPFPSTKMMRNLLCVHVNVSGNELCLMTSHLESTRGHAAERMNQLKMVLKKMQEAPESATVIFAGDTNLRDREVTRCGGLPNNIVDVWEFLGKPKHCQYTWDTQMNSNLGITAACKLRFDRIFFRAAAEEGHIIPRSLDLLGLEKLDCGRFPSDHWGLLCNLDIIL

This is a selection; strong and weak results do not stand in their true shares. Some tests of the compounds listed are not included; inactive here does not mean inactive elsewhere. The source made the active and inactive calls.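 Rule for the calls: active = inhibition above the mean of all tested compounds plus 3 SD, set per campaign (cut at about 25% in these data); inactive = the rest.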

In this experiment the target is Tyrosyl-DNA phosphodiesterase 2 (Homo sapiens) (UniProt O95551). As to the kind of experiment: blockers of TDP2 phosphodiesterase activity – biochemical, epi absorbance, recombinant enzyme, primary screen (AID 720702).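 Note: 0% = DMSO with enzyme and 100% = buffer with substrate but no TDP2.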 The following applies: recombinant TDP2, T5PNP hydrolysis, p-nitrophenol absorbance 415 nm; at 12.8 µM; hits give high values. The method, boiled down:
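System – recombinant human TDP2 · Amount – 120 nM TDP2 per well · Buffer or medium – Mg2+-containing Tris-HCl buffer, pH 7.5 · Reagent – T5PNP substrate, 5 mM · Dosing – 12.8 µM single point, 1% DMSO · Incubation – 2 h at 37 °C · Measured by – epi absorbance · Read-out basis – percent inhibition · Benchmarks – high control without enzyme, low control DMSO plus TDP2 · Repeats – singlicate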
Broadly, the inhibition is the relative decrease from the control value, in per cent. Consider `CC(C)N1C(=O)CC2(CCN(CCOC(=O)C(O)(c3ccccc3)c3ccccc3)CC2)C1=O`, for which the inhibition was inactive: 7.54%. The value for `CCN(CC)CC(C)C(C)OC(=O)C(O)(c1ccccc1)c1ccccc1` (stereo unspecified) was inactive: 3.61%; that for `COc1cc(SC)ccc1C(=O)NCC1(N(C)C)CCCCC1` was inactive: 7.67%; that for `Cc1ccc(C(=O)NCC2(N3CCCCC3)CCCCC2)cc1` was inactive: 7.95%.

As to `O=C(NCC1(N2CCCCC2)CCCCC1)c1cc([N+](=O)[O-])ccc1Cl`, the inhibition is inactive: 0.69%.

As to `CN1[C@@H]2CC[C@H]1CC(OC(=O)C(O)(c1ccccc1)c1ccccc1)C2` (stereo partly specified), the inhibition is inactive: 14.8%. `C=CCN1CCN(CCOC(=O)C(O)(c2ccccc2)c2ccccc2)CC1`: the inhibition was inactive: 4.18%.

For `O=C(NCC1(N2CCCCC2)CCCCC1)c1cc(F)c(F)cc1Cl`, the inhibition was inactive: -5.19%. As to `Cc1cc(C(=O)NCC2(N3CCCCC3)CCCCC2)ccc1[N+](=O)[O-]`, the inhibition was inactive: 2.23%.

Regarding `CCN1CCCC(OC(=O)C2(O)c3ccccc3C=Cc3ccccc32)C1` (stereo unspecified), the inhibition was inactive: -5.94%. Consider `O=C(NCC1(N2CCCCC2)CCCCC1)c1cccc(Br)c1`, for which the inhibition is inactive: 1.69%. Then `COc1ccc(C(=O)NCC2(N(C)C)CCCCC2)cc1`, with inactive: -15.9%; and `Cc1ccccc1C(=O)NCC1(N2CCCCC2)CCCCC1`, with inactive: 0.96%; and `CN(C)C1CCCC1OC(=O)C(O)(c1ccccc1)c1ccccc1` (stereo unspecified), with inactive: 7.54%. Then `CN(C)c1ccc(C(=O)NCC2(N(C)C)CCCCC2)cc1`, with inactive: -7.66%; and `COc1cccc(C(=O)NCC2(N3CCCCC3)CCCCC2)c1`, with inactive: 0.39%. Take `COc1ccc(Cl)cc1C(=O)NCC1(N(C)C)CCCCC1`: the inhibition is inactive: -15.8%. As for `O=C(NCC1(N2CCCCC2)CCCCC1)c1cccc(Cl)c1`, the inhibition is inactive: -1.69%. `CN(C)C1(CNC(=O)c2ccc(Br)cc2)CCCCC1`: the inhibition is inactive: 16.7%. On to `COc1cc(C(=O)NCC2(N(C)C)CCCCC2)c([N+](=O)[O-])cc1OC`, for which the inhibition was inactive: 7.57%. The value for `COc1ccc(Br)c(C(=O)NCC2(N3CCCCC3)CCCCC2)c1` was inactive: -3.42%; that for `C=C(C)C#CC(O)(C(=O)OC1CCN(C)CC1)c1ccccc1` (stereo unspecified) was inactive: -6.32%; that for `CN(C)c1cccc(C(=O)NCC2(N(C)C)CCCCC2)c1` was inactive: -1.04%. Then `CC(C)Oc1ccc(C(=O)NCC2(N(C)C)CCCCC2)cc1`, with inactive: -0.36%.

In the case of `O=C(OCCN1CCCC1)C(O)(c1ccccc1)c1ccccc1`, the inhibition is inactive: 4.44%. Then `O=C(OC1CN2CCC1CC2)C(CO)(c1ccccc1)c1ccccc1` (stereo unspecified), with inactive: 1.57%.
